Laboratory results as given in patent US20050038113A1, “Valproic acid and derivatives for the combinatorial therapeutic treatment of human cancers and for the treatment of tumor metastasis and minimal residual disease” (G2M Cancer Drugs AG, priority 2001, published 2005).

Columns and labels:
Assay in all cases: MTT cell viability assay
Format in all cases: cell-based, Human
[1] = system: MDA-MB453 breast carcinoma cells; settings: single reagent, 70 h; valproic acid 3 mM, Herceptin 2 μg/ml
Experimental: (§1) Human MDA-MB468, MDA-MB453 and SKBR3 breast carcinoma cells and A431 squamous cell carcinoma cells were maintained in Dulbecco's modified Eagle's medium (DMEM, BioWhittaker, Verviers, Belgium) supplemented with 10% heat inactivated fetal bovine serum (FBS), 2 mM L-glutamine, 100 units/ml penicillin, and 100 μg/ml streptomycin.
(§2) Tumor cells were seeded in 96 well plates at a density of 1×10^4 cells/well in normal growth medium. Cells were treated for 70 h with valproic acid at a final concentration of 3 mM, or 2 μg/ml of the therapeutic anti-ErbB2 antibody Herceptin™, or 2 μg/ml of the therapeutic anti-EGF receptor antibody c225 (Fan & Mendelsohn, Curr. Opin. Oncol., 10: 67-73, 1998), or a combination of valproic acid with either Herceptin™ or c225 antibodies at the same concentrations. Control cells were grown in the absence of valproic acid or antibodies. 10 μl of 10 mg/ml 3-(4,5-dimethylthiazole-2-yl)-2,5 diphenyltetrazolium bromide (MTT) (Sigma, Deisenhofen, Germany) in PBS were added to each well and the cells were incubated for another 3 h. […] After solubilization of the formazan product, the absorption at 590 nm was determined in a microplate reader (Dynatech, Denkendorf, Germany) and the relative amount of viable cells in comparison to cells cultured without the addition of valproic acid or antibodies was calculated.

[2] = system: SKBR3 breast carcinoma cells; settings: single reagent, 70 h; valproic acid 3 mM, Herceptin 2 μg/ml
Experimental: as §1
(§3) Tumor cells were seeded in 96 well plates at a density of 1×10^4 cells/well in normal growth medium. […] After solubilization of the formazan product, the absorption at 590 nm was determined in a microplate reader (Dynatech, Denkendorf, Germany) and the relative amount of viable cells in comparison to cells cultured without the addition of valproic acid or antibodies was calculated. […]
(§4) Tumor cells were seeded in 96 well plates at a density of 1×10^4 cells/well in normal growth medium. […] After solubilization of the formazan product, the absorption at 590 nm was determined in a microplate reader (Dynatech, Denkendorf, Germany) and the relative amount of viable cells in comparison to cells cultured without the addition of valproic acid or antibody-toxins was calculated.

[3] = system: MDA-MB468 breast carcinoma cells; settings: single reagent, 70 h; valproic acid 3 mM, c225 2 μg/ml
Experimental: as §1, §2

[4] = system: A431 squamous cell carcinoma cells; settings: single reagent, 70 h; valproic acid 3 mM, c225 2 μg/ml
Experimental: as §1, §3, §4

Substance | cell viability [1] | cell viability [2] | cell viability [3] | cell viability [4]
Herceptin™: therapeutic anti-ErbB2 antibody | inhibit the viability | inhibit the viability | – | –
c225: therapeutic anti-EGF receptor antibody | – | – | inhibit the viability | inhibit the viability
